Experimental data taken from patent US5658908A (priority 1992, dated 1997).

System: mu-opioid
Assay: Respiratory/analgesia studies in rats compared to fentanyl
Conditions: at higher (equivalent) doses

Compound: C=CCN1C[C@H](C)N([C@H](c2cccc(O)c2)c2cccs2)C[C@H]1C
- safety compared to fentanyl: much safer than fentanyl
